One may read the IC50 as the point on the concentration scale where inhibition reaches its midpoint.

The chains behind the UniProt entries cited, without tags or fusion partners. Where a name states a change or a piece, a line headed by the entry shows the natural chain unless it says otherwise.
UniProt P49841: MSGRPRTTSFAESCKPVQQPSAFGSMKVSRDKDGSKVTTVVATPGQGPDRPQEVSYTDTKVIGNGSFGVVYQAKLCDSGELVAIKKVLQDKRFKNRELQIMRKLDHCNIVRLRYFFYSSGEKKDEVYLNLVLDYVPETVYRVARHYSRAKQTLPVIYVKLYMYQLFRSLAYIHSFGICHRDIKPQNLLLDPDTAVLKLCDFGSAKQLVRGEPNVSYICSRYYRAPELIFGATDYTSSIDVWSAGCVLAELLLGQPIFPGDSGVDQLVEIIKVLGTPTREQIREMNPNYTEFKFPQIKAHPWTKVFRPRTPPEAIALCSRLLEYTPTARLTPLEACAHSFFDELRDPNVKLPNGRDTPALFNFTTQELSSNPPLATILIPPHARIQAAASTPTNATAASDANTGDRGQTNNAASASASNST

The target in this experiment is human recombinant GSK-3β (Homo sapiens, UniProt P49841). Kind of experiment: GSK-3β activity, AlphaScreen, primed glycogen synthase substrate peptide. The following applies: human recombinant GSK-3β 0.18 nM, biot. phospho-glycogen synthase peptide 34 nM, 10 μM ATP, 60 min room temperature, triplicate. It counts as biochemical. The procedure:
Functional measurements to ascertain IC50 values:
GSK-3β activity is measured using human recombinant GSK-3β and a primed (pre-phosphorylated) substrate peptide (derived from glycogen synthase and containing the phosphorylation sites 3a, b, and c) on the basis of the AlphaScreen technology in 384-well plate format (small volume plate, white, Greiner). […] After adding […] Donor beads (20 μg/ml) and […] antibody (anti-phosphoglycogen synthase 1:2000)-coated Acceptor beads (40 μg/ml) in AlphaScreen detection buffer (20 mM Hepes, pH 7.4, 10 mM MgCl, 40 mM EDTA, 1 mM DTT, 0.1 mg/ml BSA), plates are incubated at room temperature (in the dark) overnight and then placed in a reader (Alphaquest or Fusion) to measure final fluorescence. IC50 values are calculated from the fitted curve corrected for bank values (absence of GSK-3β) and performed in triplicate.
A general note: Alpha assays give light when donor and acceptor beads are brought close together.

SMILES strings stand for the structures.

Regarding `Cc1cc(-c2cc(-c3nc4ccc(CN5CCN(C)CC5)cc4[nH]3)c(=O)[nH]n2)cc(C)c1O` [Example 43, 6-(4-Hydroxy-3,5-dimethylphenyl)-4-[6-(4-methylpiperazin-1-ylmethyl)-1H-benzimidazol-2-yl]-2H-pyridazin-3-one], the IC50 was 1.5 nM.

(Values after patent US7727989B2, “4-benzimidazol-2-yl-pyridazine-3-one-derivatives, production and use thereof in medicaments” (Sanofi-Aventis Deutschland GmbH, priority 2004, dated 2010).)
